Only a part is listed here, and it is no random draw. Calls of active or inactive are those of the source. No stated cut-off is given here; in the data, active means inhibition mostly above about 39% (no sharp cut-off); inactive means mostly below about 34%.

Sequences of proteins named here, by UniProt entry; tags and fusion partners are left off. A change or cut given only in a name is not applied to a line headed by its entry.
UniProt Q96LD8: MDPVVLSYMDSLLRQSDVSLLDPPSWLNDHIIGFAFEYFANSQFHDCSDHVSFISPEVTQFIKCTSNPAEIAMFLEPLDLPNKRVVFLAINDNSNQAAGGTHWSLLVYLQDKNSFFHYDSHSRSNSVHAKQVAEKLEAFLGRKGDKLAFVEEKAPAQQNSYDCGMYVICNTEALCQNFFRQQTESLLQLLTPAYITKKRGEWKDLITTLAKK

The target of this assay is Sentrin-specific protease 8 (Homo sapiens) (UniProt Q96LD8). The assay is described as follows: human SENP8 protease inhibitors, confirmation, biochemical, Nedd8 protein substrate, single concentration (AID 624319). Particulars: purified SENP8, Nedd8-AMC/pro-Nedd8 cleavage fluorescence, 30 min; at 25 µM; active compounds read high.
As usually defined, the inhibition is how much of the control response was suppressed. Consider `O=[N+]([O-])c1ccc(-c2cc([N+](=O)[O-])c(O)c([N+](=O)[O-])c2)cc1`, for which the inhibition was inactive: 29.4%.
Regarding `CSc1ccc(Nc2c([N+](=O)[O-])cc([N+](=O)[O-])cc2[N+](=O)[O-])cc1`, the inhibition was inactive: 32.2%.
Take `CN(C)C(=O)c1cc([N+](=O)[O-])cc2c1-c1c(cc([N+](=O)[O-])cc1[N+](=O)[O-])C2=O`: the inhibition was active: 54.8%.
Turning to `O=c1c2cc([N+](=O)[O-])ccc2[nH]c2c([N+](=O)[O-])cc([N+](=O)[O-])cc12`, the inhibition was inactive: 20.7%.
For the compound `O=[N+]([O-])c1cc([N+](=O)[O-])c(CCNc2ccccc2)c([N+](=O)[O-])c1`, the inhibition was inactive: 37.5%.
Turning to `CC1CCN(C(=O)Oc2c(Cl)cc(Cl)c3cccnc23)CC1`, the inhibition was inactive: 26.8%.

For the origin of these results see PubChem BioAssay AID624319 (Sanford-Burnham Center for Chemical Genomics, 2012).
